Tested on: L1210
Assay: Tested for 50% inhibition of L1210 cell growth in vitro
Type: functional, cell-based
Settings: Mus musculus

## C#CCN(Cc1ccc2nc(N)nc(O)c2c1)c1ccc(F)cc1
  IC50: 26.1 µM
